Where two headings read alike, the source gives them in different places.
Key:
[1] = target: Acetylcholinesterase, ACHE (h) (Homo sapiens, UniProt P22303); settings: IPP screening at 10 uM; control galanthamine
rat = settings: multi-generational rat study; ref [10]; cited from earlier work
[2] = target: T1, Pregnane X receptor PXR, NR1I2 (h) (Homo sapiens, UniProt O75469)
T1 sequence (O75469 1-434): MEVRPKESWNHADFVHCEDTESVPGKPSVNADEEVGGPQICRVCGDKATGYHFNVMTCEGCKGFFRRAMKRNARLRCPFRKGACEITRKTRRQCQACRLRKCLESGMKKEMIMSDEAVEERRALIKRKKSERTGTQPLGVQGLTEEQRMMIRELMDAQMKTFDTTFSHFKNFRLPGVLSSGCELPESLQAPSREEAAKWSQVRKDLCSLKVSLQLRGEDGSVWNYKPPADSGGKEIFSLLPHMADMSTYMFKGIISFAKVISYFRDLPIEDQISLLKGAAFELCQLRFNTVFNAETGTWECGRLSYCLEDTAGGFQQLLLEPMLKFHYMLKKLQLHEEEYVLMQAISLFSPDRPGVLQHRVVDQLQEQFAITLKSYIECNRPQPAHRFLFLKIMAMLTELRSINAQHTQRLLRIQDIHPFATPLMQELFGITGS

Sequences of proteins named here, by UniProt entry; tags and fusion partners are left off. A change or cut given only in a name is not applied to a line headed by its entry. Residues count along the entry.
UniProt P22303, 32-614: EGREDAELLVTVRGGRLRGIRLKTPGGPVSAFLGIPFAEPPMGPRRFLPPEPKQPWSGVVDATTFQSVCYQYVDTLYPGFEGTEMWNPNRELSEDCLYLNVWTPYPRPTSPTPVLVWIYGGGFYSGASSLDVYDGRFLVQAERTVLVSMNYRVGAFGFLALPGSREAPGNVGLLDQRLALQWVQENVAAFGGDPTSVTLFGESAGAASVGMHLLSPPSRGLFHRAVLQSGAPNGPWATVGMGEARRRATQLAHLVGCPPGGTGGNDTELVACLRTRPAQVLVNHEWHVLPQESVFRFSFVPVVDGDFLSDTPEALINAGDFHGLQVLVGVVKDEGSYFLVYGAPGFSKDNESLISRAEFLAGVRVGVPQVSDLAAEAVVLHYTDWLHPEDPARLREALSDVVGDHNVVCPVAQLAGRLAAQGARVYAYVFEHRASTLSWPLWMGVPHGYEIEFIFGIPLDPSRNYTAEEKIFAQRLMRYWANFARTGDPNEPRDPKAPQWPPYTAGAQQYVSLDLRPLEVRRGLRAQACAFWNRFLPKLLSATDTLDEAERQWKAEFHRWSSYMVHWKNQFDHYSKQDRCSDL
UniProt Q12809: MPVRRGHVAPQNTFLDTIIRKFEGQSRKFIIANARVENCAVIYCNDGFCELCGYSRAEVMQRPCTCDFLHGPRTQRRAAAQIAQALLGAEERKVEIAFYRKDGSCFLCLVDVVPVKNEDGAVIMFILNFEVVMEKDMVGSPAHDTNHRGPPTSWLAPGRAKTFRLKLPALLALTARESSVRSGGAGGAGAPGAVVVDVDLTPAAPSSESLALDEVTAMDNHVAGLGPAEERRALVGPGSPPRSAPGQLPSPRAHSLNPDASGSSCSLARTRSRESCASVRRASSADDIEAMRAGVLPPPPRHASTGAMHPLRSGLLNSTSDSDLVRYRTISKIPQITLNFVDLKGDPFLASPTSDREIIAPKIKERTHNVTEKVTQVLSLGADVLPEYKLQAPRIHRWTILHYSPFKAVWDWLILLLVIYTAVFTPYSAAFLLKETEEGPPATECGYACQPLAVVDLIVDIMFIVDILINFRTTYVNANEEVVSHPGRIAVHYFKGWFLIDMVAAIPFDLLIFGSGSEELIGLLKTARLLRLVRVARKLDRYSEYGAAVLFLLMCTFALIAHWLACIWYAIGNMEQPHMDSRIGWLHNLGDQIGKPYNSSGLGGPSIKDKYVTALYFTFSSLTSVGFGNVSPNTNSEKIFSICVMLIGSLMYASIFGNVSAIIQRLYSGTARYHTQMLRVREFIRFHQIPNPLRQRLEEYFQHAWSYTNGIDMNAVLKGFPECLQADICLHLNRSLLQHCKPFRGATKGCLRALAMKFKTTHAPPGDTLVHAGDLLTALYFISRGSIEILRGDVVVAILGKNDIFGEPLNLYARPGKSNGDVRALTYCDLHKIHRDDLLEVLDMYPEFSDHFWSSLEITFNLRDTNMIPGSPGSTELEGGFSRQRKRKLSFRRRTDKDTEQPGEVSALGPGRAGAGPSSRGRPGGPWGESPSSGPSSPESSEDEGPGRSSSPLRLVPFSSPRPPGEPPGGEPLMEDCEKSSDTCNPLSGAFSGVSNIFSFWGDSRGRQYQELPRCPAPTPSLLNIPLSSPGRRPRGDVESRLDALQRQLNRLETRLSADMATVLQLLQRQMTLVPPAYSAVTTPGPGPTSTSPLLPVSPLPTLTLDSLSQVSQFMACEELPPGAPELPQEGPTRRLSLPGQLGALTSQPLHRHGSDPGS

[3] = target: T1, Pregnane X receptor PXR, NR1I2 (h); remark: listed apart in the source
[4] = target: Potassium voltage-gated channel subfamily H member 2 hERG, KCNH2 (h) (Homo sapiens, UniProt Q12809)
[5] = ref [10]; cited from earlier work

| Substance | Enzymatic activity [1] [%] | NOAEL (rat) [mg/kg bw/day] | IPP screening %, Coactivator recruitment [2] [%] | IPP screening %, Coactivator recruitment [3] [%] | IPP screening %, Specific binding [4] [%] | ADI [5] [mg/kg bw/day] |
| --- | --- | --- | --- | --- | --- | --- |
| (4S,4aR,5S,5aR,6S,12aS)-4-(Dimethylamino)-3,5,6,10,12,12a-hexahydroxy-6-methyl-1,11-dioxo-1,4,4a,5,5a,6,11,12a-octahydrotetracene-2-carboxamide--hydrogen chloride (1/1) [Oxytetracycline hydrochloride] | 1.6 |  |  |  |  |  |
| mixture of 2- and 3-tert-butyl-4-methoxyphenol [Butylated Hydroxyanisole] |  | 100 | -1.3 | 15.1 | 5.4 | 1 |

From publication PMC11879040 (2024)
